{
  "source": "patent US10214507B2",
  "about": "“Carbazole-containing amides, carbamates, and ureas as cryptochrome modulators” (Reset Therapeutics, Inc., priority 2014, dated 2019)",
  "key": {"[1]": {"tested_on": "db/db mouse model of type II diabetes", "settings": "db/db mice"}, "[2]": {"tested_on": "core clock gene mRNAs in livers of ICR mice", "experiment": "Four day study, liver clock gene mRNA by RT-qPCR, ICR mice", "format": "in vivo, mouse", "settings": "50 mg/kg PO BID 4 days", "description": "Male ICR mice (weighing 30-35 g), obtained from Charles River Laboratories (Hollister, CA), were used for the experiment following at least 3 days of acclimation. Mice were dosed with vehicle (WFI or 10% Kolliphor) or compound (50 mg/kg, dose volume 5 mL/kg, PO) for 4 days BID (twice a day), beginning in the afternoon of the first day. The last dose of compound or vehicle was administered on the morning of harvest. On the day of harvest (6 hours following the final dose), mice were euthanized by CO2 asphyxiation and 50 mg of liver tissue was excised and placed in a tube containing 500 μl of RNA later.\nE.Z.N.A.® HP Total RNA Isolation Kits (R6812-01 and the protocol described in the Manual, Revised 2010) were utilized to prepare and isolate RNA from the liver samples. To prepare the RNA samples, 10-30 mg of sample was removed from RNA-Later and placed in a 1.5 ml microfuge tube. GTC lysis buffer (700 μl) was added to the tissue, which was homogenized with a rotor-stator homogenizer (e.g. Tissue-Tearor, Model #985370 BioSpec Products with 4.5 mm probe, Cat. #985370-04), and then centrifuged at full speed (>13,000×g) for 5 minutes. The cleared supernatant was transferred by pipetting to a DNA Clearance Column Pre-inserted in a 2 mL Collection Tube. The assembled column was centrifuged at 13,000×g for 1 minute, and the flow-through was saved. An equal volume (700 μl) of 70% ethanol was added to the lysate and mixed. The sample was then applied to a HiBind RNA spin column placed into a 2 ml collection tube, which was centrifuged at 10,000×g for 60 seconds at room temperature. […]\nRediPlate 96 RiboGreen RNA Quantification Kit (Invitrogen) RediPlate standard curve was prepared by transferring 20 μl reconstituted RNA standard to a RediPlate well reconstituted in 180 μl RediPlate TE buffer. […] After transferring 5 μl to RediPlate well reconstituted in 195 μl TE buffer and incubating 10 min. at RT, Fluorescence Intensity of wells with standards and samples were read in a Tecan M200 with Excitation set at 480 nm and Emission set at 520 nm with the gain set to −70%. […]"}, "[3]": {"experiment": "in vivo", "settings": "male, db/db, mouse, liver, oral"}, "[4]": {"experiment": "Pharmacokinetic analysis in ICR mice (plasma and liver, LC/MS/MS)", "format": "in vivo, mouse", "settings": "50 mg/kg P.O.; for Cmax / Tmax / half-life / MRT last: male, ICR, po; for Cmax: 50 mg/kg; for half-life: read-out: Elimination T1/2 (converted); for MRT last: read-out: MRT (0-last, hr); for AUC (0-last; ng · hr/mL): head printed MRT, apparently AUC 0-last", "description": "Male ICR mice (weighing 30-40 g, Charles River Laboratories) were used for the experiment with n=3 mice for each experimental group (27 mice total for the study). […] Blood and liver tissue were collected at the following time points after administration: 15, 30, 60, 90 minutes, 3, 6, 12 and 24 hours. A control group of animals (TO) was also sampled. Animals were euthanized with CO2 and the blood collected from the heart using cardiac puncture, transferred to an EDTA tube, and then centrifuged at 5400 rpm for 5 minutes at 4° C. The resultant plasma was frozen using dry ice and then stored at −80° C. until ready for assay. Liver tissue was removed from each animal, 0.5 g was collected in an eppendorff, frozen and submitted for pharmacokinetic measurement. […] Raw data was analyzed using WinNonLin for PK parameters (Cmax, Tmax, elimination t^1/2, MRT (mean residence time), AUC (area under the curve)−(0-last and % extrapolated)."}, "[5]": {"tested_on": "C57/Bl6J DIO mice", "experiment": "Increasing dosages of Compound 72 for 7 days in diet-induced obesity mouse model", "format": "in vivo", "settings": "positive control 30 mg/kg QD PO 7 days", "from_the_text": "(§1) Male C57/Bl6J DIO mice were obtained from The Jackson Laboratory (Sacramento, Calif.). […] Animals were accustomed to these conditions for at least 2 weeks before experimentation and used at approximately 24 weeks of age.\n(§2) Significance was accepted when p<0.05.\nMale C57/Bl6J DIO mice were obtained from The Jackson Laboratory (Sacramento, Calif.). […] Animals were accustomed to these conditions for at least 2 weeks before experimentation and used at approximately 26 weeks of age."}, "[6]": {"tested_on": "C57/Bl6J DIO mice", "experiment": "7 day dosing in diet-induced obesity (DIO) mouse model", "format": "in vivo", "settings": "positive control 30 mg/kg PO 7 days", "from_the_text": "as §1, §2"}},
  "note": "Where two headings read alike, the source gives them in different places.",
  "data": [
    {"smiles": "O=C1C(F)CCN1CC(O)Cn1c2ccc(F)cc2c2cc(F)ccc21", "note": "(centres unmarked) [Compound 9, 1-(3-(3,6-difluoro-9H-carbazol-9-yl)-2-hydroxypropyl)-3-fluoropyrrolidin-2-one]", "values": [
      {"measurement": "liver exposure below the Per2 EC50 value", "setting": "[1]; 30 mg/kg", "result": "around 1.6 fold"},
      {"measurement": "HOMA-IR", "setting": "[1]; 30 mg/kg QD PO 7 days", "result": "289.9+/−24.40 units"},
      {"measurement": "glucose AUC from OGTT", "setting": "[1]; 30 mg/kg QD PO 7 days", "result": "44442+/−3895"},
      {"measurement": "plasma insulin at t=0", "setting": "[1]; 30 mg/kg QD PO 7 days", "result": "10.94 ± 1.62", "unit": "ng/mL"},
      {"measurement": "plasma insulin at t=2 hr", "setting": "[1]; 30 mg/kg QD PO 7 days", "result": "5.76 ± 0.11", "unit": "ng/mL"},
      {"measurement": "reduction of glucose AUC from vehicle control", "setting": "[1]; 30 mg/kg QD PO 7 days", "result": 21, "unit": "%"},
      {"measurement": "liver exposure higher than the Per2 EC50 value", "setting": "[1]; 100 mg/kg", "result": 2.2, "unit": "fold"},
      {"measurement": "HOMA-IR", "setting": "[1]; 100 mg/kg QD PO 7 days", "result": "175.3+/−27.52 units"},
      {"measurement": "fasting blood glucose", "setting": "[1]; 100 mg/kg QD PO 7 days", "result": "403.1 ± 39.73", "unit": "mg/dL"},
      {"measurement": "glucose AUC from OGTT", "setting": "[1]; 100 mg/kg QD PO 7 days", "result": "33643+/−4822"},
      {"measurement": "plasma insulin at t=0", "setting": "[1]; 100 mg/kg QD PO 7 days", "result": "7.71 ± 1.26", "unit": "ng/mL"},
      {"measurement": "plasma insulin at t=2 hr", "setting": "[1]; 100 mg/kg QD PO 7 days", "result": "3.70 ± 0.29", "unit": "ng/mL"},
      {"measurement": "reduction of HOMA-IR compared to vehicle control", "setting": "[1]; 100 mg/kg QD PO 7 days", "result": 60, "unit": "%"},
      {"measurement": "reduction of glucose AUC from vehicle control", "setting": "[1]; 100 mg/kg QD PO 7 days", "result": 40, "unit": "%"},
      {"measurement": "liver exposure higher than the Per2 EC50 value", "setting": "[1]; 300 mg/kg", "result": 15.9, "unit": "fold"},
      {"measurement": "HOMA-IR", "setting": "[1]; 300 mg/kg QD PO 7 days", "result": "301.4+/−52.66 units"},
      {"measurement": "glucose AUC from OGTT", "setting": "[1]; 300 mg/kg QD PO 7 days", "result": "33650+/−4688"},
      {"measurement": "plasma insulin at t=0", "setting": "[1]; 300 mg/kg QD PO 7 days", "result": "10.54 ± 1.6", "unit": "ng/mL"},
      {"measurement": "plasma insulin at t=2 hr", "setting": "[1]; 300 mg/kg QD PO 7 days", "result": "4.01 ± 0.44", "unit": "ng/mL"},
      {"measurement": "reduction of glucose AUC from vehicle control", "setting": "[1]; 300 mg/kg QD PO 7 days", "result": 40, "unit": "%"},
      {"measurement": "Cry2 transcripts", "setting": "[2]; ICR mice liver", "result": "decrease"},
      {"measurement": "increase in Bmal1 mRNA at ZT6", "setting": "[2]; ICR mice liver", "result": 4, "unit": "fold"},
      {"measurement": "liver Per2 expression", "setting": "[2]; ICR mice, ZT6", "result": "suppression"},
      {"measurement": "concentration at 8 h", "setting": "[3]; 30 mg/kg", "result": 190, "unit": "nM"},
      {"measurement": "concentration at 8 h", "setting": "[3]; 100 mg/kg", "result": 670, "unit": "nM"},
      {"measurement": "concentration at 8 h", "setting": "[3]; 300 mg/kg", "result": 4770, "unit": "nM"},
      {"measurement": "Cmax", "setting": "[4]; mouse, liver, mouse liver, read-out: Cmax", "result": 33000, "unit": "ng/mL"},
      {"measurement": "Cmax", "setting": "[4]; mouse, liver, mouse, unbound, read-out: Cmax UB (liver)", "result": 990, "unit": "ng/mL"},
      {"measurement": "Cmax", "setting": "[4]; mouse, plasma, mouse plasma, read-out: Cmax", "result": 893, "unit": "ng/mL"},
      {"measurement": "Cmax", "setting": "[4]; mouse, plasma, mouse, read-out: Cmax (plasma)", "result": 893, "unit": "ng/mL"},
      {"measurement": "Cmax", "setting": "[4]; mouse, plasma, mouse, unbound, read-out: Cmax UB (plasma)", "result": 26.8, "unit": "ng/mL"},
      {"measurement": "Tmax", "setting": "[4]; mouse liver", "result": 0.25, "unit": "h"},
      {"measurement": "half-life", "setting": "[4]; mouse liver", "result": 3.12, "unit": "h"},
      {"measurement": "MRT last", "setting": "[4]; mouse liver", "result": 1.5, "unit": "h"},
      {"measurement": "Tmax", "setting": "[4]; mouse plasma", "result": 0.25, "unit": "h"},
      {"measurement": "half-life", "setting": "[4]; mouse plasma", "result": 3.18, "unit": "h"},
      {"measurement": "MRT last", "setting": "[4]; mouse plasma", "result": 3.92, "unit": "h"},
      {"measurement": "% AUC extrapolated", "setting": "[4]; mouse liver", "result": 0.142, "unit": "%"},
      {"measurement": "AUC (total; ng · hr/mL)", "setting": "[4]; mouse liver", "result": 26800, "unit": "ng·h/mL"},
      {"measurement": "AUC (0-last; ng · hr/mL)", "setting": "[4]; mouse liver", "result": 26800, "unit": "ng·h/mL"},
      {"measurement": "% AUC extrapolated", "setting": "[4]; mouse plasma", "result": 0.564, "unit": "%"},
      {"measurement": "AUC (total; ng · hr/mL)", "setting": "[4]; mouse plasma", "result": 1930, "unit": "ng·h/mL"},
      {"measurement": "AUC (0-last; ng · hr/mL)", "setting": "[4]; mouse plasma", "result": 1920, "unit": "ng·h/mL"},
      {"measurement": "Cmax (liver)", "setting": "[4]; mouse", "result": 33000, "unit": "ng/mL"},
      {"measurement": "Total Liver AUC (0-last)", "setting": "[4]; mouse", "result": 26800},
      {"measurement": "Unbound Liver AUC (0-last)", "setting": "[4]; mouse", "result": 804},
      {"measurement": "Unbound Plasma AUC (0-last)", "setting": "[4]; mouse", "result": 57}
    ]},
    {"smiles": "CN(CCOc1ccc(CC2SC(=O)NC2=O)cc1)c1ccccn1", "note": "(centres unmarked) [Rosiglitazone, reference compound]", "values": [
      {"measurement": "glucose AUC", "setting": "[5]", "result": "9858+/−1281 units"},
      {"measurement": "glucose AUC", "setting": "[1]; positive control 30 mg/kg QD PO 7 days", "result": "11502+/−2118 units"},
      {"measurement": "glucose AUC", "setting": "[6]", "result": "11500+/−1104 units"}
    ]}
  ]
}
